# Measurements published in ChEMBL document CHEMBL5584349.
# Legend:
# [1] = Toxicity in female NSG mouse assessed as body weight loss at 50 to 150 mg/kg, po administered once a day for 7 days and measured after 7 days; format: organism-based; conditions: in vivo, 336 h, dose 50-150 mg/kg, time 14 day
# [2] = Toxicity in female NSG mouse assessed as adverse events at 50 to 150 mg/kg, po administered once a day for 7 days and measured after 7 days; format: organism-based; conditions: in vivo, 336 h, dose 50-150 mg/kg, time 14 day
# [3] = test system: Jurkat; experiment: Antitumor activity against human Jurkat cells xenografted in female NSG mouse assessed as reduction in tumor growth at 100 to 150 mg/kg, po administered daily for 26 days; format: functional, organism-based; conditions: dose 100-150 mg/kg, time 26.0 day
# [4] = Toxicity in female NSG mouse xenografted with human Jurkat cells assessed as body weight loss at 100 to 150 mg/kg, po administered daily for 26 days; format: organism-based; conditions: in vivo, 624 h, dose 100-150 mg/kg, time 26 day
# [5] = Toxicity in female NSG mouse xenografted with human Jurkat cells assessed as effect on reticulocyte count at 100 to 150 mg/kg, po administered daily for 26 days; format: organism-based; conditions: in vivo, 624 h, dose 100-150 mg/kg, time 26 day
# [6] = test system: PANC-1; experiment: Synergistic antitumor activity against human PANC-1 cells incubated for 72 hrs in presence of paclitaxel; format: functional, cell-based
# [7] = Cytotoxicity against non-cycling human PBMC cells at 0.2 to 100 nM measured after 72 hrs by CellTiter-Blue assay; format: toxicity, cell-based; conditions: 0.1 µM, dose 0.2-100 nM
# [8] = test system: Jurkat; experiment: Antitumor activity against human Jurkat cells xenografted in female NSG mouse assessed as reduction in tumor growth at 20 mg/kg, po administered daily for 26 days; format: functional, organism-based; conditions: time 26.0 day
# [9] = test system: HepG2; experiment: Cytotoxicity in human HepG2 cells assessed as effect on cell growth upto 40 uM incubated for 72 hrs by high content toxicological analysis; format: toxicity, cell-based; conditions: hepg2, 72 h
# [10] = test system: HepG2; experiment: Cytotoxicity in human HepG2 cells assessed as effect on nuclear size upto 40 uM incubated for 72 hrs by high content toxicological analysis; format: toxicity, cell-based; conditions: hepg2, 72 h
# [11] = test system: HepG2; experiment: Cytotoxicity in human HepG2 cells assessed as effect on DNA structure upto 40 uM incubated for 72 hrs by high content toxicological analysis; format: toxicity, cell-based; conditions: hepg2, 72 h
# [12] = test system: HepG2; experiment: Cytotoxicity in human HepG2 cells assessed as effect on cell membrane permeability upto 40 uM incubated for 72 hrs by high content toxicological analysis; format: toxicity, cell-based; conditions: hepg2, 72 h
# [13] = test system: HepG2; experiment: Cytotoxicity in human HepG2 cells assessed as effect on mitochondrial mass upto 40 uM incubated for 72 hrs by high content toxicological analysis; format: toxicity, cell-based; conditions: hepg2, 72 h
# [14] = test system: HepG2; experiment: Cytotoxicity in human HepG2 cells assessed as effect on mitochondrial membrane potential upto 40 uM incubated for 72 hrs by high content toxicological analysis; format: toxicity, cell-based; conditions: hepg2, 72 h
# [15] = test system: HepG2; experiment: Cytotoxicity in human HepG2 cells assessed as effect on cytochrome C release upto 40 uM incubated for 72 hrs by high content toxicological analysis; format: toxicity, cell-based; conditions: hepg2, 72 h
smiles,measurement,setting,value
Cc1c(C(=O)NS(=O)(=O)N(C)C)cc(-c2ccc(Cl)c(Oc3ccccn3)c2)c2cc[nH]c12,Activity,[1],Non-Toxic
same,Activity,[2],Non-Toxic
same,Activity,[3],Active
same,Activity,[4],Non-Toxic
same,Activity,[5],Toxic
Cc1c(C(=O)O)cc(-c2ccc(Cl)c(C#N)c2)c2cc[nH]c12,Activity,[6],Active
COc1cc(Nc2ncc3c(n2)-c2ccc(Cl)cc2C(c2c(F)cccc2OC)=NC3)ccc1C(=O)O [ALISERTIB],Activity,[7],Non-Toxic
same,Activity,[8],Active
Cc1c(C(=O)NS(=O)(=O)C2CC2)cc(-c2ccc(Cl)cc2)c2cc[nH]c12,Activity,[9],Non-Toxic
same,Activity,[10],Non-Toxic
same,Activity,[11],Non-Toxic
same,Activity,[12],Non-Toxic
same,Activity,[13],Non-Toxic
same,Activity,[14],Non-Toxic
same,Activity,[15],Non-Toxic

# Calls of active or inactive are those of the source. No cut-off for these calls is given here.
